Experimental data: ChEMBL document CHEMBL1667811, “Influence of pKa on the biotransformation of indene H1-antihistamines by CYP2D6” (Bioorg Med Chem Lett, 2011)
pKi: −log10 of the molar value.

Protein sequences, listed by entry. Tags and fused reporters are not part of them.
UniProt P35367, whole entry: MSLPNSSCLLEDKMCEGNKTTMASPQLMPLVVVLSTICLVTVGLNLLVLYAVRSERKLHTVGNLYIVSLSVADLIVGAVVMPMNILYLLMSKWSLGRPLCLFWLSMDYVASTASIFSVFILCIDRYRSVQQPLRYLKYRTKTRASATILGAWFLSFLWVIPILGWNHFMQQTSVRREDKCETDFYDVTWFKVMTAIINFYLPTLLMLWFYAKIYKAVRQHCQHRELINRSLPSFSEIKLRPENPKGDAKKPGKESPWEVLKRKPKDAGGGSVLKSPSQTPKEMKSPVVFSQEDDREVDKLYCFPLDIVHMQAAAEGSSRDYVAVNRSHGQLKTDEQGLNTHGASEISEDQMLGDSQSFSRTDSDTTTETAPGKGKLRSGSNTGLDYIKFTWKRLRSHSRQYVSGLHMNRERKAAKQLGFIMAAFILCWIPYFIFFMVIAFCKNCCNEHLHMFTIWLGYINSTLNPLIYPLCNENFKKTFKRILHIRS

How the values were obtained:
Histamine H1 receptor = Histamine H1 receptor (Homo sapiens, UniProt P35367); assay: Binding affinity to histamine H1 receptor
Rattus norvegicus = assay: Intrinsic clearance in rat 1 mg/kg, iv in presence of 3 uM quinidine; type: ADME, organism-based; parameters: dose 1 mg/kg, route intravenous; conditions: in vivo
[1] = test system: Homo sapiens (human liver microsomes); assay: Intrinsic clearance in human liver microsomes

| pKi (Histamine H1 receptor) | clearance (Rattus norvegicus) [mL/min/kg] | CL [1] [mL/min/kg] | SMILES |
| --- | --- | --- | --- |
| 7.62 | – | – | CN(CCF)CCC1=C(Cc2cnccn2)c2ccccc2C1 |
| – | 403 | 411.7 | C[C@H](C1=C(CCN(C)Cc2ncc[nH]2)Cc2ccccc21)c1cnccn1 |
